{
  "source": "patent US9688664B2",
  "about": "“Modulators of fatty acid amide hydrolase” (JANSSEN PHARMACEUTICA NV, priority 2010, dated 2017)",
  "test_system": "rat",
  "experiment": "Primary Observation (Irwin) Test in the rat",
  "assay_type": "in vivo",
  "details": "listed as 4-(2,2-difluoro-benzo[1,3]dioxol-5-ylmethyl)-piperazine-1-carboxylic acid (4-chl",
  "description": "Primary Observation (Irwin) Test in the Rat\nThe method, which detects the first toxic dose, the active dose-range and the main effects of a test substance on behavior and physiological function, follows that described by Irwin et al., Psychopharmacologia, 1968, 13, 222-257. […] All animals within a treatment group were observed simultaneously. Behavioral modifications, physiological and neurotoxicity symptoms, rectal temperature and pupil diameter were recorded according to a standardized observation grid derived from that of Irwin. The grid contains the following items: death, convulsions, tremor, Straub tail, altered activity, jumping, abnormal gait (rolling, tip-toe), motor uncoordination, altered abdominal muscle tone, loss of grasping, akinesia, catalepsy, loss of traction, loss of balance, fore-paw treading, writhes, piloerection, stereotypies (sniffing, chewing, head movements), head twitches, scratching, altered respiration, aggression, altered fear/startle, altered reactivity to touch, ptosis, exophthalmia, loss of righting reflex, loss of corneal reflex, analgesia, defecation/diarrhea, salivation, lacrimation, rectal temperature (hypothermia/hyperthermia) and pupil diameter (myosis/mydriasis). The test substances were evaluated at 2 doses (10 and 60 mg/kg), administered p.o. immediately before the test, and compared with a vehicle control group. Observations were performed 15, 30, 60, 120 and 180 minutes after administration of the test substances/vehicles and also 24 hours later.",
  "data": [
    {"smiles": "O=C(Nc1cnccc1Cl)N1CCN(Cc2ccc3c(c2)OC(F)(F)O3)CC1", "note": "[Example 1]", "values": [
      {"measurement": "Increased reactivity to touch (rats affected/tested)", "setting": "10 mg/kg p.o., at 180 min", "result": "one of four rats"},
      {"measurement": "Increased abdominal muscle tone (rats affected/tested)", "setting": "60 mg/kg p.o., at 60 min", "result": "one of four rats"},
      {"measurement": "Abnormal gait (rats affected/tested)", "setting": "60 mg/kg p.o.", "result": "not apparent"},
      {"measurement": "Hypothermia (rats affected/tested)", "setting": "60 mg/kg p.o.", "result": "absent"},
      {"measurement": "Sedation (rats affected/tested)", "setting": "60 mg/kg p.o.", "result": "not apparent"}
    ]}
  ]
}
